From US8557797B2, “Triazolopyridine derivatives and their therapeutic use” (Chiesi Farmaceutici S.p.A., priority 2009, dated 2013) come the findings set out here.

Sequences of proteins named here, by UniProt entry; tags and fusion partners are left off.
UniProt Q16539, whole entry: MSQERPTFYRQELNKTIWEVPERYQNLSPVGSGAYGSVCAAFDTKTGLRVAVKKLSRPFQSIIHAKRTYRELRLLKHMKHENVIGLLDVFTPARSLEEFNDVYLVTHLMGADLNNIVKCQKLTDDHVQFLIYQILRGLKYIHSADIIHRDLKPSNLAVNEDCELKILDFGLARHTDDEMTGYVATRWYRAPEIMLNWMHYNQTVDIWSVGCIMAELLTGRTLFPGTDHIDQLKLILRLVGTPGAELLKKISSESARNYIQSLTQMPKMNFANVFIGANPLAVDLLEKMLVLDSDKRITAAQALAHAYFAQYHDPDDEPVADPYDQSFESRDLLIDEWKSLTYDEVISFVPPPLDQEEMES

For one experiment, the target named is p38α (Homo sapiens, UniProt Q16539). The experiment is described as follows: p38 Kinase Assay (ATF-2 phosphorylation ELISA). The settings on record: read-out: p38α inhibition (IC50 values); 2 h pre-incubation, ATP 250 μM, 1% DMSO. As to the method: Human recombinant p38 enzyme expressed in E. coli and activated by incubation with MKK6 enzyme (Calbiochem #559324) is used as source of enzyme activity.
The assay is carried in high binding, clear, flat bottom 96 well assay plates which have been coated with recombinant ATF-2 (Biosource #PHF0043). Test compounds are incubated with p38 kinase for 2 h prior to initiating the kinase assay by the addition of ATP to obtain an assay concentration of 250 μM. Phosphorylation of ATF-2 is detected and quantified using an ELISA. This consists of sequential incubation in the presence of anti-phospho-ATF2, biotinylated anti-IgG and streptavidin-HRP. Incubation with an HRP chromogenic substrate (TMB) results in absorbance that is proportional to the amount of phosphorylated substrate produced. Absorbance is detected using a multiwell plate reader.
Compounds are diluted in DMSO prior to addition to assay buffer, the final DMSO concentration in the assay being 1%.
The IC50 is defined as the concentration at which a given compound achieves 50% inhibition of control.
On the technique in general: In an ELISA, binding on a coated surface is turned into a signal by an enzyme label.

The test system of experiment [1] is TNFα release from LPS activated THP-1 cells or PBMC's. The experiment is described as follows: p38 Functional Assay (TNFα release after LPS). The settings on record: read-out: EC50 (inhibition of TNFα release), 1 h pre-treatment, 0.3% DMSO. Here is the method: Inhibition of cellular p38 depresses the release of TNFα, a functional response which is quantified by measurement of the amount of TNFα in the supernatants of LPS activated THP-1 cells (an immortalised monocytic cell line) or peripheral blood mononuclear cells (PBMC's) isolated from freshly drawn human blood.
Cells seeded in 96 well plates are pre-treated by the addition of p38 inhibitors for 1 h followed by addition of lipopolysaccharide (LPS) to activate cytokine production and release. The amount of TNFα released into the cell supernatants is quantified using an R&D Systems enzyme linked immunosorbant assay (ELISA) kit (product DY210) following the manufacturers instructions.
Compounds are diluted in DMSO prior to addition, the final DMSO concentration in the assay being 0.3%. The EC50 is defined as the concentration at which a given compound achieves 50% inhibition of the control.

Molecules are shown by their SMILES. A value given as a limit tells only on which side of the number the result lay.

In the case of `O=C(Cc1ccc(Sc2ccc3nnc(-c4cccc(OCCN5CCOCC5)c4)n3c2)cc1)Nc1cc(F)cc(N2CCOCC2)c1`, the IC50 (usually the concentration needed to halve the response being measured) on p38α was 100 to 500 nM. In addition, the EC50 (as a rule, the midpoint of the concentration-response curve) in experiment [1] lay within 100 to 500 nM.
As for `Cc1ccc(-n2nc(C(C)(C)C)cc2NC(=O)Cc2ccc(Sc3ccc4nnc(-c5c(Cl)cccc5Cl)n4c3)cc2)cc1`, on p38α, the IC50 is under 10 nM. Besides, the EC50 in experiment [1] was under 10 nM.
With `CC(C)c1nnc2ccc(Sc3ccc(CC(=O)Nc4cc(C(C)(C)C)nn4-c4cccc(CN5CCOCC5)c4)cc3)cn12`, the IC50 at p38α was 10 to 100 nM. Also, in experiment [1], the EC50 is 500 to 7000 nM.
The corresponding values for `Cc1ccc(-n2nc(C(C)(C)C)cc2NC(=O)Cc2ccc(Sc3ccc4nnc(-c5cccc(OCCN6CCOCC6)c5)n4c3)cc2)cc1` are under 10 nM and 10 to 100 nM.
